Some results for these compounds are left out of this collection, so the calls shown say nothing about other tests.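 A five-concentration, 48-hour dose response in 96-well plates underlies each endpoint, interpolated linearly between surrounding concentrations. The concentration for 50% growth inhibition is given as GI50. TGI marks complete inhibition of growth.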
How the values were obtained:
Assay in all cases: NCI anticancer screen, dose series, 48 h
NCI/ADR-RES ovarian = system: NCI/ADR-RES ovarian
OVCAR-3 ovarian = system: OVCAR-3 ovarian
OVCAR-4 ovarian = system: OVCAR-4 ovarian
HL-60(TB) leukemia = system: HL-60(TB) leukemia
ACHN renal = system: ACHN renal
CCRF-CEM leukemia = system: CCRF-CEM leukemia
TK-10 renal = system: TK-10 renal
A549 NSCLC = system: A549 NSCLC
HOP-92 NSCLC = system: HOP-92 NSCLC
UACC-257 melanoma = system: UACC-257 melanoma
A498 renal = system: A498 renal
RXF 393 renal = system: RXF 393 renal
CAKI-1 renal = system: CAKI-1 renal
M14 melanoma = system: M14 melanoma
K-562 leukemia = system: K-562 leukemia
OVCAR-5 ovarian = system: OVCAR-5 ovarian
HT29 colon = system: HT29 colon
U251 CNS = system: U251 CNS
HS 578T breast = system: HS 578T breast
HCT-116 colon = system: HCT-116 colon
SF-295 CNS = system: SF-295 CNS
MALME-3M melanoma = system: MALME-3M melanoma
DU-145 prostate = system: DU-145 prostate
NCI-H23 lung = system: NCI-H23 lung
COLO 205 colon = system: COLO 205 colon
BT-549 breast = system: BT-549 breast
SNB-75 CNS = system: SNB-75 CNS
786-0 renal = system: 786-0 renal
SR leukemia = system: SR leukemia
HOP-62 NSCLC = system: HOP-62 NSCLC
SK-MEL-28 melanoma = system: SK-MEL-28 melanoma
NCI-H522 lung = system: NCI-H522 lung
SF-539 CNS = system: SF-539 CNS
MDA-N = system: MDA-N
LOX IMVI melanoma = system: LOX IMVI melanoma
NCI-H322M lung = system: NCI-H322M lung
PC-3 prostate = system: PC-3 prostate
SN12C renal = system: SN12C renal
RPMI-8226 leukemia = system: RPMI-8226 leukemia
SK-OV-3 ovarian = system: SK-OV-3 ovarian
NCI-H226 lung = system: NCI-H226 lung
HCT-15 colon = system: HCT-15 colon
MCF7 breast = system: MCF7 breast
UO-31 renal = system: UO-31 renal
SNB-19 CNS = system: SNB-19 CNS
SF-268 CNS = system: SF-268 CNS
UACC-62 melanoma = system: UACC-62 melanoma
MOLT-4 leukemia = system: MOLT-4 leukemia
EKVX NSCLC = system: EKVX NSCLC
MDA-MB-435 = system: MDA-MB-435
MDA-MB-231 breast = system: MDA-MB-231 breast
IGROV1 ovarian = system: IGROV1 ovarian
SK-MEL-2 melanoma = system: SK-MEL-2 melanoma
SK-MEL-5 melanoma = system: SK-MEL-5 melanoma
T-47D breast = system: T-47D breast

Compound: O=C(OC1CN2CCC1CC2)C(O)(Cc1ccccc1)C1CC1 (stereo not given)
- GI50 (NCI/ADR-RES ovarian): 15 µM
- TGI (NCI/ADR-RES ovarian): 28.4 µM
- GI50 (OVCAR-3 ovarian): > 100 µM
- TGI (OVCAR-3 ovarian): > 100 µM
- GI50 (OVCAR-4 ovarian): > 100 µM
- TGI (OVCAR-4 ovarian): > 100 µM
- GI50 (HL-60(TB) leukemia): > 100 µM
- TGI (HL-60(TB) leukemia): > 100 µM
- GI50 (ACHN renal): > 100 µM
- TGI (ACHN renal): > 100 µM
- GI50 (CCRF-CEM leukemia): > 100 µM
- TGI (CCRF-CEM leukemia): > 100 µM
- GI50 (TK-10 renal): > 100 µM
- TGI (TK-10 renal): > 100 µM
- GI50 (A549 NSCLC): > 100 µM
- TGI (A549 NSCLC): > 100 µM
- GI50 (HOP-92 NSCLC): > 100 µM
- TGI (HOP-92 NSCLC): > 100 µM
- GI50 (UACC-257 melanoma): > 100 µM
- TGI (UACC-257 melanoma): > 100 µM
- GI50 (A498 renal): > 100 µM
- TGI (A498 renal): > 100 µM
- GI50 (RXF 393 renal): 97.7 µM
- TGI (RXF 393 renal): > 100 µM
- GI50 (CAKI-1 renal): > 100 µM
- TGI (CAKI-1 renal): > 100 µM
- GI50 (M14 melanoma): > 100 µM
- TGI (M14 melanoma): > 100 µM
- GI50 (K-562 leukemia): > 100 µM
- TGI (K-562 leukemia): > 100 µM
- GI50 (OVCAR-5 ovarian): > 100 µM
- TGI (OVCAR-5 ovarian): > 100 µM
- GI50 (HT29 colon): > 100 µM
- TGI (HT29 colon): > 100 µM
- GI50 (U251 CNS): > 100 µM
- TGI (U251 CNS): > 100 µM
- GI50 (HS 578T breast): 33.3 µM
- TGI (HS 578T breast): > 100 µM
- GI50 (HCT-116 colon): > 100 µM
- TGI (HCT-116 colon): > 100 µM
- GI50 (SF-295 CNS): > 100 µM
- TGI (SF-295 CNS): > 100 µM
- GI50 (MALME-3M melanoma): > 100 µM
- TGI (MALME-3M melanoma): > 100 µM
- GI50 (DU-145 prostate): > 100 µM
- TGI (DU-145 prostate): > 100 µM
- GI50 (NCI-H23 lung): > 100 µM
- TGI (NCI-H23 lung): > 100 µM
- GI50 (COLO 205 colon): > 100 µM
- TGI (COLO 205 colon): > 100 µM
- GI50 (BT-549 breast): > 100 µM
- TGI (BT-549 breast): > 100 µM
- GI50 (SNB-75 CNS): 80.6 µM
- TGI (SNB-75 CNS): > 100 µM
- GI50 (786-0 renal): 21.6 µM
- TGI (786-0 renal): 46.1 µM
- GI50 (SR leukemia): > 100 µM
- TGI (SR leukemia): > 100 µM
- GI50 (HOP-62 NSCLC): > 100 µM
- TGI (HOP-62 NSCLC): > 100 µM
- GI50 (SK-MEL-28 melanoma): > 100 µM
- TGI (SK-MEL-28 melanoma): > 100 µM
- GI50 (NCI-H522 lung): > 100 µM
- TGI (NCI-H522 lung): > 100 µM
- GI50 (SF-539 CNS): > 100 µM
- TGI (SF-539 CNS): > 100 µM
- GI50 (MDA-N): > 100 µM
- TGI (MDA-N): > 100 µM
- GI50 (LOX IMVI melanoma): > 100 µM
- TGI (LOX IMVI melanoma): > 100 µM
- GI50 (NCI-H322M lung): > 100 µM
- TGI (NCI-H322M lung): > 100 µM
- GI50 (PC-3 prostate): > 100 µM
- TGI (PC-3 prostate): > 100 µM
- GI50 (SN12C renal): > 100 µM
- TGI (SN12C renal): > 100 µM
- GI50 (RPMI-8226 leukemia): > 100 µM
- TGI (RPMI-8226 leukemia): > 100 µM
- GI50 (SK-OV-3 ovarian): > 100 µM
- TGI (SK-OV-3 ovarian): > 100 µM
- GI50 (NCI-H226 lung): > 100 µM
- TGI (NCI-H226 lung): > 100 µM
- GI50 (HCT-15 colon): > 100 µM
- TGI (HCT-15 colon): > 100 µM
- GI50 (MCF7 breast): > 100 µM
- TGI (MCF7 breast): > 100 µM
- GI50 (UO-31 renal): > 100 µM
- TGI (UO-31 renal): > 100 µM
- GI50 (SNB-19 CNS): > 100 µM
- TGI (SNB-19 CNS): > 100 µM
- GI50 (SF-268 CNS): > 100 µM
- TGI (SF-268 CNS): > 100 µM
- GI50 (UACC-62 melanoma): > 100 µM
- TGI (UACC-62 melanoma): > 100 µM
- GI50 (MOLT-4 leukemia): > 100 µM
- TGI (MOLT-4 leukemia): > 100 µM
- GI50 (EKVX NSCLC): > 100 µM
- TGI (EKVX NSCLC): > 100 µM
- GI50 (MDA-MB-435): > 100 µM
- TGI (MDA-MB-435): > 100 µM
- GI50 (MDA-MB-231 breast): > 100 µM
- TGI (MDA-MB-231 breast): > 100 µM
- GI50 (IGROV1 ovarian): > 100 µM
- TGI (IGROV1 ovarian): > 100 µM
- GI50 (SK-MEL-2 melanoma): > 100 µM
- TGI (SK-MEL-2 melanoma): > 100 µM
- GI50 (SK-MEL-5 melanoma): > 100 µM
- TGI (SK-MEL-5 melanoma): > 100 µM
- GI50 (T-47D breast): > 100 µM
- TGI (T-47D breast): > 100 µM

Source: PubChem BioAssay (NCI)
